Source: US20240117334A1, “FACTOR B PROTEASES” (Vertex Pharmaceuticals Incorporated, priority 2021, published 2024)

Target: Human Factor B (human) (UniProt P00751)
Test: cell-based or functional assay

| Substance | hu Factor B cleavage (ELISA) EC50 (nM) | hu Factor B cleavage (ELISA) EC50 [nM] | hu Factor B cleavage (ELISA) EC50 (nM), average of n=2, S.D. 8145.9 [nM] |
| --- | --- | --- | --- |
| uPA C122S/V38D/A96N/D97A/A98G/H99V/T97a_L97bdel (from UniProt P00749 179-430) (enzyme) | > 1000 |  |  |
| uPA V38D/A96E/D97G/C122S/Y172L/A98G/H99M/T97a_L97bdel (from UniProt P00749 179-430) (enzyme) | > 1200 |  |  |
| uPA V38D/A98G/H99A/C122S/L97bdel (from UniProt P00749 179-430) (enzyme) | > 1600 |  |  |
| uPA V38D/A98G/H99A/C122S/T97a_L97bdel (from UniProt P00749 179-430) (enzyme) | > 800 |  |  |
| uPA V38D/A98G/H99L/C122S/T97a_L97bdel (from UniProt P00749 179-430) (enzyme) | > 550 |  |  |
| uPA V38D/C122S/A96D/D97G/A98G/H99A/T97a_L97bdel (from UniProt P00749 179-430) (enzyme) | > 1100 |  |  |
| uPA V38D/C122S/A96D/D97W/A98N/H99L/T97a_L97bdel (from UniProt P00749 179-430) (enzyme) |  | 3720 |  |
| uPA V38D/C122S/A96E/D97R/A98G/H99V/T97a_L97bdel (from UniProt P00749 179-430) (enzyme) | > 3000 |  |  |
| uPA V38D/C122S/D97L/A98G/H99V/T97a_L97bdel (from UniProt P00749 179-430) (enzyme) | > 950 |  |  |
| uPA V38D/D97A/C122S/A98G/H99L/T97a_L97bdel (from UniProt P00749 179-430) (enzyme) |  |  | 6560 |

More lines, now with the values ahead:

| hu Factor B cleavage (ELISA) EC50 (nM) | hu Factor B cleavage (ELISA) EC50 [nM] | hu Factor B cleavage (ELISA) EC50 (nM), average of n=2, S.D. 8145.9 [nM] | Substance |
| --- | --- | --- | --- |
| > 750 |  |  | uPA V38D/A96E/D97E/C122S/A98G/H99A/T97a_L97bdel (from UniProt P00749 179-430) (enzyme) |
| > 950 |  |  | uPA V38D/A96G/D97E/A98G/H99V/C122S/T97a_L97bdel (from UniProt P00749 179-430) (enzyme) |
|  | 7860 |  | uPA V38D/C122S/A96D/D97T/A98G/H99M/T97a_L97bdel (from UniProt P00749 179-430) (enzyme) |
| > 1050 |  |  | uPA V38D/C122S/A96E/D97H/A98G/H99L/T97a_L97bdel (from UniProt P00749 179-430) (enzyme) |
| > 3000 |  |  | uPA V38D/C122S/T97a_L97bdel (from UniProt P00749 179-430) (enzyme) |
